# Data from PubChem BioAssay AID1009 (NMMLSC, 2008).
# Protein sequences, listed by entry. Tags and fused reporters are not part of them.
# UniProt Q07820, whole entry, looked up: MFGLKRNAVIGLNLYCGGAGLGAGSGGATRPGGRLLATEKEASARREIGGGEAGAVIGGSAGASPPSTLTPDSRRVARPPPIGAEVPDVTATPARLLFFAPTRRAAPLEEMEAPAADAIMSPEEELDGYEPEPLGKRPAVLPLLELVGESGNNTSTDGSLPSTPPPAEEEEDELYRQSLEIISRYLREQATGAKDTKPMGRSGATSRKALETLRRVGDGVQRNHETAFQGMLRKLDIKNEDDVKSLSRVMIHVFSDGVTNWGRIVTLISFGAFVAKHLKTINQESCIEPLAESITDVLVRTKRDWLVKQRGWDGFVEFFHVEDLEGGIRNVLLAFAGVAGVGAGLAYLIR
# Only a part is listed here, and it is no random draw. Active and inactive are the calls of the source. No stated cut-off is given here; in the data, active means inhibition above about 40%.
# Molecular target: Induced myeloid leukemia cell differentiation protein Mcl-1 (Homo sapiens) (UniProt Q07820)
# Experiment: inhibitors of Bim peptide binding to Mcl-1, primary screen, biochemical, bead-based flow cytometry, multiplex (AID 1009);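 further: 0% = no compound tracer wells and 100% = peptide blocker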
# Conditions: Bim peptide-Mcl-1 binding, at 10 µM, stronger effect = higher value
row,SMILES,inhibition
1,Clc1n[nH]nc1-c1nn[nH][15n]1,inactive: -5%
2,O=P1(Nc2ccccn2)COc2ccccc2OC1,inactive: -2%
3,CN(C(=O)Cc1ccc(Cl)c(Cl)c1)[C@@H]1CCCC[C@H]1N1CCCC1,inactive: 0%
4,CC(C)/C=N\N=C(\N)N[N+](=O)[O-],inactive: 0%
5,CN(C)C1(CNC(=O)c2ccc(S(C)(=O)=O)cc2)CCCCC1,inactive: 0%
6,Cc1nn(-c2ccccc2)c2c1P(=O)(N1CCOCC1)N(C)C(c1ccccc1)=N2 (centres undefined),inactive: 0%
7,CC1CCC(C(C)C)C(OP(=O)(Nc2ccccn2)c2ccccc2)C1 (centres undefined),inactive: 0%
8,Cc1ccc(OCC(=O)OC2CN3CCC2CC3)cc1 (centres undefined),inactive: -3%
9,O=P1(Nc2ccc(Br)cn2)COc2ccccc2OC1,inactive: 1%
10,O=P1(Nc2ncccn2)COc2ccccc2OC1,inactive: 2%
11,CCOP1(=S)c2c(C)nn(CCC#N)c2N=C(c2ccccc2F)N1C (centres undefined),inactive: -1%
12,O=P(Nc1nccs1)(Oc1ccccc1)Oc1ccccc1,inactive: 0%
13,O=P(Nc1nccs1)(c1ccccc1)c1nc2ccccc2s1 (centres undefined),inactive: -1%
14,O=[N+]([O-])c1ccc2c(c1)nnn2O,inactive: -2%
15,CCOP1(=S)c2c(C)nn(CCC#N)c2N=C(c2ccc(F)cc2)N1C (centres undefined),active: 52%
16,Cc1cccc(OCC(=O)OC2CN3CCC2CC3)c1 (centres undefined),inactive: 20%
17,COc1cc(C(=O)NCC2(N3CCOCC3)CCCCC2)cc(Cl)c1OC(C)C,inactive: -3%
18,COc1cc(C2NCCC3(OCCO3)C2(C)C)cc(OC)c1OC (centres undefined),inactive: -4%
19,CCOP(=O)(Nc1cccc2ccccc12)OCC,inactive: -7%
20,Cc1ccc(NCCc2c([N+](=O)[O-])cc([N+](=O)[O-])cc2[N+](=O)[O-])cc1,inactive: -2%
21,COc1ccc2nc(NP(=O)(c3ccccc3)c3ccccc3)sc2c1,inactive: -1%
22,O=C(OC1CN2CCC1CC2)C12CC3CC(CC(C3)C1)C2 (centres undefined),inactive: -1%
23,Cc1cc(=O)[nH]c(N[N+](=O)[O-])n1,inactive: 0%
24,Cc1c2c(nc3ccccc13)SC(C(Cl)Cl)C2 (centres undefined),inactive: -2%
25,COc1ccc(N/C(=N/P(=O)(N2CCOCC2)N2CCOCC2)N2CCOCC2)cc1,inactive: -1%
26,Cc1ccc2nc3c(c(C)c2c1)CC(C(Cl)Cl)S3 (centres undefined),inactive: -5%
27,CC(C)NC(=O)NP(=O)(Oc1ccccc1)Oc1ccccc1,inactive: -2%

row,SMILES,inhibition
1,CCN(CC)C(=S)SC(NC=O)C(Cl)(Cl)Cl (centres undefined),inactive: -5%
2,O=[N+]([O-])c1cc([N+](=O)[O-])c(-c2ccn[nH]2)s1,inactive: -22%
3,ClCCSc1nnc(-c2cccnc2)o1,inactive: -8%
4,Cc1cc(SC(NC(=O)c2ccccc2)C(Cl)(Cl)Cl)nc(C(C)C)n1 (centres undefined),inactive: -9%
5,Cc1cc(SC(NC=O)C(Cl)(Cl)Cl)ncn1 (centres undefined),inactive: -4%
6,O=P(Nc1ccccn1)(c1cccc2ccccc12)c1cccc2ccccc12,inactive: -3%
7,O=C(COc1ccccc1)OC1CN2CCC1CC2 (centres undefined),inactive: -2%
8,COP1(=S)c2c(C)nn(CCC#N)c2N=C(c2ccc(F)cc2)N1C (centres undefined),inactive: -1%
9,CCC(C)N(CC(C)C)C(=S)SC(NC(C)=O)C(Cl)(Cl)Cl (centres undefined),inactive: 0%
10,CC(=O)N1C2C3N(C(C)=O)C1C1N(C(C)=O)C(C(N1C(C)=O)N3C(C)=O)N2C(C)=O,inactive: 29%
11,O=[N+]([O-])c1cccc2n[nH]nc12,inactive: 0%
12,Cc1ccc(NP(=O)(Oc2ccccc2)Oc2ccccc2)nc1,inactive: 3%
13,O=[N+]([O-])c1cc([N+](=O)[O-])c(CCNc2ccccc2)c([N+](=O)[O-])c1,inactive: 3%
14,CCc1nc2c(n1)c1c(non1O)c1c2no[n+]1[O-],inactive: 24%
15,COc1ccc(C2=NCC(CBr)S2)cc1 (centres undefined),inactive: -2%
16,CC(C)=N/N=C(\N)N[N+](=O)[O-],inactive: -6%
17,CN(C)C(=O)OCCc1n(C)cc[n+]1C,inactive: -8%
18,CC1CCN(C(=O)Oc2c(Cl)cc(Cl)c3cccnc23)CC1,inactive: -2%
19,CCN(/C(=N/P(=O)(N1CCOCC1)N1CCOCC1)N1CCOCC1)c1ccc(OC)cc1,inactive: 0%
20,O=[N+]([O-])c1ncn(CCn2ncnc2[N+](=O)[O-])n1,inactive: -1%
21,Cc1cc(SC(NC(=O)c2ccc(F)cc2)C(Cl)(Cl)Cl)ncn1 (centres undefined),inactive: -13%
22,CCOP(=O)(Nc1ccccc1)OCC,inactive: 0%
23,CCN(N=Nc1nonc1N)c1nonc1N,inactive: -5%
24,COc1ccccc1OP(=O)(Nc1ccc(C)cn1)Oc1ccccc1OC,inactive: 3%
25,CN1CCCC(OC(=O)C(c2ccccc2)c2ccccc2)C1 (centres undefined),inactive: 0%
26,Clc1ccc(Cl)c(NC2=NCC(CBr)S2)c1 (centres undefined),inactive: -3%
27,NC(=O)c1cc([N+](=O)[O-])cc([N+](=O)[O-])c1N,inactive: -1%

row,SMILES,inhibition
1,Cc1ccc(N/C(=N/P(=O)(N2CCOCC2)N2CCOCC2)N2CCOCC2)cc1,inactive: -2%
2,CC(C)CC(=O)NC(Sc1ccc(Cl)cc1)C(Cl)(Cl)Cl (centres undefined),inactive: 0%
3,Oc1ccccc1CNc1ccccn1,inactive: -5%
4,O=C(NC(Sc1ccncn1)C(Cl)(Cl)Cl)c1ccccc1 (centres undefined),inactive: -8%
5,Cc1c2non([O-])c-2c(C)[n+](=O)[n+]1[O-],inactive: -4%
6,CC(C)(C)C(=O)NC(Sc1ccccc1)C(Cl)(Cl)Cl (centres undefined),inactive: 2%
7,O=P1(Nc2nc3ccc(Cl)cc3s2)COc2ccccc2O1 (centres undefined),inactive: 1%
8,CCOc1ccc(C2=NCC(CBr)S2)cc1 (centres undefined),inactive: -1%
9,CC(=O)Nc1ccc(Oc2c([N+](=O)[O-])cc([N+](=O)[O-])cc2[N+](=O)[O-])cc1,inactive: 2%
10,O=C(NC1CCS(=O)(=O)C1)NP(=S)(Oc1ccccc1)Oc1ccccc1 (centres undefined),inactive: -7%
11,CCNC(=S)/N=C(\N)N[N+](=O)[O-],inactive: 3%
12,c1ccc(-c2nn[nH]n2)c(-c2nn[nH]n2)c1,inactive: 0%
13,CCOC(=O)NC(Sc1ccccc1)C(Cl)(Cl)Cl (centres undefined),inactive: 0%
14,O=c1c2cc([N+](=O)[O-])ccc2[nH]c2c([N+](=O)[O-])cc([N+](=O)[O-])cc12,inactive: 0%
15,COC(=O)c1cc2c(s1)N=C(c1ccccc1)N(C)P2(=O)N1CCOCC1 (centres undefined),inactive: -2%
16,CC(=O)NC(SC(=S)N(CC(C)C)CC(C)C)C(Cl)(Cl)Cl (centres undefined),inactive: -2%
17,Cc1ccc(OP(=O)(Nc2ccccn2)Oc2ccc(C)cc2)cc1,inactive: 0%
18,CCC(=O)N1C2C3N(C(=O)CC)C1C1N(C(=O)CC)C(C(N1C(=O)CC)N3C(=O)CC)N2C(=O)CC,inactive: 3%
19,O=P(Nc1ccccn1)(c1ccc(Br)cc1)c1ccc(Br)cc1,inactive: 0%
20,C(Cc1nn[nH]n1)Cc1nn[nH]n1,inactive: -1%
21,O=C(OC1CN2CCC1CC2)c1cccc(Cl)c1 (centres undefined),inactive: 1%
22,CC(=O)NC(SC(=S)N(C)C)C(Cl)(Cl)Cl (centres undefined),inactive: -10%
23,c1nnnn1CCn1cnnn1,inactive: -1%
24,O=P(Nc1nccs1)(c1ccccc1)c1ccccc1,inactive: 0%
25,CC(C)C(=O)NC(Sc1ccccc1)C(Cl)(Cl)Cl (centres undefined),inactive: -6%
